The values that follow come from PubChem BioAssay AID504937 (National Center for Advancing Translational Sciences (NCATS), 2011).

Protein sequences, listed by entry. Tags and fused reporters are not part of them. Residues count along the entry.
UniProt P17405, 47-631 limits assumed: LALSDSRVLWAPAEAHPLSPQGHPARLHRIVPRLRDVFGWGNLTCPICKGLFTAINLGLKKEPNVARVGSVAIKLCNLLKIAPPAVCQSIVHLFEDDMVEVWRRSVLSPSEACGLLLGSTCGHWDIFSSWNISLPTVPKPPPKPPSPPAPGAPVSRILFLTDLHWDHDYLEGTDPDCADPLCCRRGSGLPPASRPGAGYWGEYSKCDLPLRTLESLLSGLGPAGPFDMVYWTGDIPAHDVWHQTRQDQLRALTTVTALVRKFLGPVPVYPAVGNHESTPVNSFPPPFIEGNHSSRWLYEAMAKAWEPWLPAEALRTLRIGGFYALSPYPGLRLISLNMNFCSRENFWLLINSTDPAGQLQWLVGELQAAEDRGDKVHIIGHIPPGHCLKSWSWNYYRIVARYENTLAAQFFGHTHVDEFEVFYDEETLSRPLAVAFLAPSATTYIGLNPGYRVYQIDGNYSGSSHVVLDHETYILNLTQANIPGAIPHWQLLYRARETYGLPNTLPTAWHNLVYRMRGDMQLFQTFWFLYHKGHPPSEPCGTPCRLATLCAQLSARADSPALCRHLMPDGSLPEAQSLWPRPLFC

Each structure is given as a SMILES string. The entries are a selection whose mix differs from that of the whole data set. Some salts and complexes are drawn in separate pieces, as the source files them; their charges need not balance. Active and inactive are the calls of the source. The call rests on the fitted dose curve; in most records, active means well fitted inhibition curve with a large enough effect; inconclusive means small, poorly fitted or top-dose-only effect; inactive means no such curve, though single readings can be large or run the other way.

This experiment deals with Sphingomyelin phosphodiesterase (Homo sapiens) (UniProt P17405). The experiment in a line: Inhibitors of Secretory Acid Sphingomyelinase (S-ASM): qHTS. As to conditions: placental ASM, HMU-PC fluorogenic substrate (series up to 57.5 µM), 60 min; at 57.5 µM (top of the series).
In the case of `CN1CCN(CCOC(=O)C(O)(c2ccccc2)c2ccccc2)CC1`, the activity change, negative = inhibition is inactive: 3.23%.

On to `COc1ccc(NC2CCN(C(=O)OC(C)(C)C)CC2)cc1`, for which the activity change, negative = inhibition was inactive: -0.939%.

Take `COc1cc(C(=O)NCC2(N3CCCCC3)CCCCC2)ccc1OC(F)F`: the activity change, negative = inhibition is inactive: -3.35%.

Take `O=C(NCC1(N2CCOCC2)CCCCC1)c1cc(=O)[nH]c2ccccc12`: the activity change, negative = inhibition was inactive: -0.128%.

Consider `O=C(NCC1(N2CCCCC2)CCCCC1)c1cccc(C(F)(F)F)c1`, for which the activity change, negative = inhibition was inactive: 1.14%.

Regarding `O=[N+]([O-])c1cc([N+](=O)[O-])c(NCC2CCS(=O)(=O)C2)c([N+](=O)[O-])c1` (stereo unspecified), the activity change, negative = inhibition is inactive: -5.61%.

For `O=C(NCC1(N2CCCCC2)CCCCC1)c1cccc([N+](=O)[O-])c1`, the activity change, negative = inhibition was inactive: -0.349%.

For `CSc1ccc(C(=O)NCC2(N3CCOCC3)CCCCC2)cc1`, the activity change, negative = inhibition was inactive: 5.32%.

On to `N#CC1(Nc2ccccc2)CCN(CCc2ccccc2)CC1`, for which the activity change, negative = inhibition was inactive: 0.655%.

On to `CCN1CCC(Nc2ccc(Cl)cc2)CC1`, for which the activity change, negative = inhibition is inactive: -2.98%.

For the compound `O=C(NCC1(N2CCCCC2)CCCCC1)c1ccc(OC(F)F)cc1`, the activity change, negative = inhibition is inactive: 2.34%.

On to `CCCOc1ccc(C(=O)NCC2(N(C)C)CCCCC2)cc1OC`, for which the activity change, negative = inhibition is inactive: -1.49%.

Turning to `O=C(NCC1(N2CCCCC2)CCCCC1)c1cncc(Br)c1`, the activity change, negative = inhibition is inactive: -1.12%.

Take `COc1ccc2c(c1O)-c1c(O)c(OC)cc3c1[C@H](C2)[N+](C)(C)CC3.O=[N+]([O-])c1cc([N+](=O)[O-])c([O-])c([N+](=O)[O-])c1[O-]`: the activity change, negative = inhibition was inactive: -5.94%.

As to `CN1CCC(Nc2cccc(F)c2)CC1`, the activity change, negative = inhibition is inactive: 2.67%.

Consider `O=C(OC1CN2CCC1CC2)c1ccc([N+](=O)[O-])cc1` (stereo unspecified), for which the activity change, negative = inhibition was inactive: -0.638%.

As for `O=C(NCC1(N2CCOCC2)CCCCC1)c1cc(F)c(F)cc1Cl`, the activity change, negative = inhibition is inactive: 0.267%.

On to `COc1cc(OC)c(C(=O)NCC2(N(C)C)CCCCC2)cc1OC`, for which the activity change, negative = inhibition is inactive: -0.477%.

With `O=[N+]([O-])c1cc([N+](=O)[O-])c(OC2CCCCC2O)c([N+](=O)[O-])c1` (stereo unspecified), the activity change, negative = inhibition is inactive: -1.19%.

As for `CN(C)c1cccc(C(=O)NCC2(N3CCCCC3)CCCCC2)c1`, the activity change, negative = inhibition is inactive: 43.3%.

For the compound `COc1ccc(CN(CCCl)CCCl)cc1Cl`, the activity change, negative = inhibition is inactive: -0.595%.

For the compound `CC(C)c1ccc(NC2CCN(C(=O)OC(C)(C)C)CC2)cc1`, the activity change, negative = inhibition was inactive: -2.54%.

`CCOC(=O)N1CCC(Nc2ccc(OC)cc2)CC1`: the activity change, negative = inhibition was inactive: 6.17%.

For `O=C1C(O)=C([N+](=O)[O-])C(=O)C(O)=C1[N+](=O)[O-]`, the activity change, negative = inhibition is inactive: -1.86%.

As to `COc1ccc(Cl)cc1C(=O)NCC1(N2CCOCC2)CCCCC1`, the activity change, negative = inhibition is inactive: 3.35%.

Regarding `O=C(OC1CN2CCC1CC2)C1c2ccccc2Oc2ccccc21` (stereo unspecified), the activity change, negative = inhibition was inactive: 16.6%.

For the compound `O=C(NCC1(N2CCCCC2)CCCCC1)c1ccc(Cl)s1`, the activity change, negative = inhibition is inactive: 6.94%.

`N#CC1(Nc2ccccc2)CCN(Cc2ccccc2)CC1`: the activity change, negative = inhibition is inactive: 4.99%.

Take `O=C(NCC1(N2CCOCC2)CCCCC1)c1cc2ccccc2o1`: the activity change, negative = inhibition is inactive: 2.78%.

Consider `Cc1cc(C)cc(N(C(=O)c2ccccc2)C2CCN(C(=O)OC(C)(C)C)CC2)c1`, for which the activity change, negative = inhibition was inactive: -0.716%.

As for `O=C(NCC1(N2CCCCC2)CCCCC1)c1ccc(Cl)nc1`, the activity change, negative = inhibition is inactive: 5.26%.

Consider `Cc1cccc(NC2(C#N)CCN(Cc3ccccc3)CC2)c1`, for which the activity change, negative = inhibition was inactive: -0.331%.

As for `CSc1ccccc1C(=O)NCC1(N2CCCCC2)CCCCC1`, the activity change, negative = inhibition was inactive: 4.02%.

As to `O=C(NCC1(N2CCCCC2)CCCCC1)c1cccs1`, the activity change, negative = inhibition is inactive: 0.244%.

Consider `O=C(NCC1(N2CCCCC2)CCCCC1)c1ccc(=O)[nH]c1`, for which the activity change, negative = inhibition is inactive: -0.786%.

As to `COc1ccc(C(=O)NCC2(N3CCCCC3)CCCCC2)c(OC)c1OC`, the activity change, negative = inhibition is inactive: 5.96%.

`CC(C)(C)OC(=O)N1CCC(N(C(=O)c2ccccc2)c2ccc(F)cc2)CC1`: the activity change, negative = inhibition is inactive: -0.627%.

For the compound `COc1ccc(C(=O)NCC2(N3CCCCC3)CCCCC2)cc1`, the activity change, negative = inhibition was inactive: 7.45%.

Regarding `COc1cc(C(=O)NCC2(N(C)C)CCCCC2)ccc1OC(F)F`, the activity change, negative = inhibition is inactive: 3.59%.

`CCOC(=O)N1CCC(Nc2cccc(C)c2)CC1`: the activity change, negative = inhibition was inactive: 1.6%.

For the compound `COc1ccc(NC2CCN(CCc3ccccc3)CC2)c(OC)c1`, the activity change, negative = inhibition is inactive: 0.245%.

For `CCOC(=O)N1CCC(Nc2ccc(F)cc2)CC1`, the activity change, negative = inhibition is inactive: 3.79%.

`O=C(NCC1(N2CCCCC2)CCCCC1)c1ccc(F)cc1`: the activity change, negative = inhibition is inactive: 0.505%.

Take `O=P1(N(CCCl)CCCl)SCCCS1`: the activity change, negative = inhibition is inactive: 0.36%.

Turning to `CCCCOc1ccc(C(=O)NCC2(N3CCOCC3)CCCCC2)cc1`, the activity change, negative = inhibition was inactive: -1.52%.

As for `CCOc1ccc(C)cc1CN(CCCl)CCCl`, the activity change, negative = inhibition is inactive: 1.54%.

For the compound `O=C1CCN(Cc2ccccc2)CC1`, the activity change, negative = inhibition was inactive: 3.05%.

On to `Cn1c(=O)[nH]cc(N(CCCl)CCCl)c1=O`, for which the activity change, negative = inhibition is inactive: 3.95%.

Regarding `CN(C)c1ccc(C(=O)NCC2(N3CCCCC3)CCCCC2)cc1`, the activity change, negative = inhibition is inactive: 3.53%.

As for `O=C(NCC1(N2CCCCC2)CCCCC1)c1ccco1`, the activity change, negative = inhibition is inactive: -0.803%.

Take `CCN1CCC(Nc2cccc(F)c2)CC1`: the activity change, negative = inhibition was inactive: 5.42%.

With `Cc1ccccc1NC1(C#N)CCN(Cc2ccccc2)CC1`, the activity change, negative = inhibition was inactive: -3.01%.

In the case of `Cc1ccc(NC2(C#N)CCN(Cc3ccccc3)CC2)cc1`, the activity change, negative = inhibition is inactive: 1.39%.

On to `Fc1ccccc1NC1CCN(Cc2ccccc2)CC1`, for which the activity change, negative = inhibition was inactive: 3.54%.

As to `Cc1ccc(C(=O)NCC2(N3CCCCC3)CCCCC2)o1`, the activity change, negative = inhibition is inactive: 0.462%.

Consider `COc1cc(OC)cc(C(=O)NCC2(N3CCCCC3)CCCCC2)c1`, for which the activity change, negative = inhibition is inactive: 6.23%.

For the compound `CC(=O)N(c1ccccc1)C1CCNCC1`, the activity change, negative = inhibition is inactive: 3.91%.

As for `CN1CCC(Nc2ccc(Cl)cc2)CC1`, the activity change, negative = inhibition was inactive: 0%.

Consider `CCC(CO)(C(=O)OC1CN2CCC1CC2)c1ccccc1` (stereo unspecified), for which the activity change, negative = inhibition is inactive: 4.71%.

Turning to `COc1cc(OC)cc(C(=O)NCC2(N3CCOCC3)CCCCC2)c1`, the activity change, negative = inhibition was inactive: -0.105%.

For `COc1cccc(C(=O)N(c2cc(C)cc(C)c2)C2CCN(C(=O)OC(C)(C)C)CC2)c1`, the activity change, negative = inhibition was inactive: 0.765%.

As to `CCCOc1ccc(C(=O)NCC2(N(C)C)CCCCC2)cc1`, the activity change, negative = inhibition is inactive: 0.168%.

In the case of `O=C(O)C1(Nc2ccccc2)CCN(Cc2ccccc2)CC1`, the activity change, negative = inhibition was inactive: 0.0501%.

As to `CC(C)(C)OC(=O)N1CCC(Nc2ccccc2)CC1`, the activity change, negative = inhibition was inactive: 3.74%.

Consider `CN1CCC(Nc2ccc(F)c(Cl)c2)CC1`, for which the activity change, negative = inhibition is inactive: -4.06%.

In the case of `CCOc1ncccc1C(=O)NCC1(N2CCOCC2)CCCCC1`, the activity change, negative = inhibition is inactive: 0.24%.

With `O=C(O)c1cccc(Nc2c([N+](=O)[O-])cc([N+](=O)[O-])cc2[N+](=O)[O-])c1`, the activity change, negative = inhibition is inactive: -2.63%.

As to `O=C(OC1CN2CCC1CC2)C1c2ccccc2C=Cc2ccccc21` (stereo unspecified), the activity change, negative = inhibition was inactive: 3.51%.

`CCc1cc(C(=O)NCC2(N3CCCCC3)CCCCC2)sc1C`: the activity change, negative = inhibition was inactive: 4.8%.

As for `N/C(=N\O)c1c(N)no[n+]1[O-]`, the activity change, negative = inhibition was inactive: 1.51%.

Turning to `CCOC(=O)N1CCC(Nc2ccc(C)cc2)CC1`, the activity change, negative = inhibition was inactive: 7.26%.

Take `COc1ccc(C(=O)NCC2(N3CCOCC3)CCCCC2)cc1OC`: the activity change, negative = inhibition is inactive: -2.87%.

Regarding `O=C(NCC1(N2CCOCC2)CCCCC1)c1cc(Br)ccc1Cl`, the activity change, negative = inhibition was inactive: 6.4%.

Regarding `COc1cc(C(=O)NCC2(N3CCOCC3)CCCCC2)cc(OC)c1C`, the activity change, negative = inhibition is inactive: 0.494%.

In the case of `CCCN1CCC(Nc2cc(OC)cc(OC)c2)CC1`, the activity change, negative = inhibition was inactive: -2.01%.

Regarding `Cc1cc(N(CCCl)CCCl)ccc1C=O`, the activity change, negative = inhibition was inactive: -4.03%.

With `c1ccc(CN2CCC(Nc3ccccc3)CC2)cc1`, the activity change, negative = inhibition was inactive: 1.51%.

`CN(C)C1(CNC(=O)c2cccc(C#N)c2)CCCCC1`: the activity change, negative = inhibition is inactive: -1.05%.

On to `CCOC(=O)C(CC)C1=NC(C)(C)Cc2ccccc21.O=[N+]([O-])c1cc([N+](=O)[O-])c(O)c([N+](=O)[O-])c1` (stereo unspecified), for which the activity change, negative = inhibition was inactive: -1.82%.

For the compound `CC(C)(C)OC(=O)N1CCC(N(C(=O)c2ccccc2)c2ccc(Cl)cc2)CC1`, the activity change, negative = inhibition is inactive: 1.3%.

For `N#Cc1ccc(C(=O)NCC2(N3CCCCC3)CCCCC2)cc1`, the activity change, negative = inhibition is inactive: -1.02%.
